On the set-up of series [1]: method as in Zhang et al. [2008]. The settings on record: 600 mg rifampicin; ref Zhang et al. [2008]; cited from earlier work.
For series [2] the following is noted: repeated administration of 10 mg rifampicin to humans; ref Lutz et al., CPT [2018a]; cited from earlier work.
For another series, the system named is LS180 cells. The format is in vitro ADME. The settings on record: human. How it is done:
The UPLC-MS/MS system consisted of a triple stage quadrupole mass spectrometer (Waters Xevo TQ-S, Milford, MA, USA) and an Acquity Classic UPLC® (Waters). Mass spectrometric analysis was performed by selective reaction monitoring using positive electrospray ionization. […] For 25-[…], the mass transition m/z 749.34 → 399.17 was monitored, which constitutes the use of a product ion generated during electrospray ionization as precursor. Because of their considerable molecular size, rifamycins were chromatographically separated on a Waters Peptide BEH C18 Column (300 Å, 1.7 μm, 2.1 mm × 50 mm) to foster optimal mass transfer kinetics. The mobile phase was composed of H20/ACN (95/5, v/v) + 0.1% FA (eluent A) and ACN + 0.1% FA (eluent B). […] The total run time was 4 min, and the column was heated to 60 °C. The injection volume was set to 20 μL with a flow rate of 0.5 mL/min. A pellet of untreated LS180 cells (500,000 cells/sample) was used for calibration standards and QC standard. […] To determine intracellular rifamycin concentrations, measured compound concentrations were normalized to the total pellet volume. This was achieved by multiplying the measured mean cellular volume of a LS180 cell (CASY cell counter, Schärfe System, Reutlingen, Germany) by the mean cell number of four wells of an identically prepared and treated cell culture plate. […]

The text below walks through data of PMC10322781 (Archives of Toxicology, 2023).

For `CO[C@H]1/C=C/O[C@@]2(C)Oc3c(C)c(O)c4c(O)c(c(/C=N/N5CCN(C)CC5)c(O)c4c3C2=O)NC(=O)/C(C)=C\C=C\[C@H](C)[C@H](O)[C@@H](C)[C@@H](O)[C@@H](C)[C@H](OC(C)=O)[C@@H]1C` [Rifampicin], the “expected drug concentration in the gut lumen” value in series [1] was “approx. 2.9 mM”. For the same compound, the “AUC and Cmax of midazolam or dabigatran etexilate decreased to” value in series [2] is 50%. For the same compound, in the series on LS180 cells, the “time to reach intracellular concentration equilibrium” value stood at 2 h. In addition, the “molar metabolite-to-parent ratio (25-O-deacetyl metabolite)” value in the series with LS180 cells (10 µM) was 0.01.
